The results in this text go back to ChEMBL document CHEMBL5236580, “Blocking Non-enzymatic Functions by PROTAC-Mediated Targeted Protein Degradation” (J Med Chem, 2022).

By UniProt entry, the sequences of proteins in these tests, tags left out.
UniProt Q15910, whole entry: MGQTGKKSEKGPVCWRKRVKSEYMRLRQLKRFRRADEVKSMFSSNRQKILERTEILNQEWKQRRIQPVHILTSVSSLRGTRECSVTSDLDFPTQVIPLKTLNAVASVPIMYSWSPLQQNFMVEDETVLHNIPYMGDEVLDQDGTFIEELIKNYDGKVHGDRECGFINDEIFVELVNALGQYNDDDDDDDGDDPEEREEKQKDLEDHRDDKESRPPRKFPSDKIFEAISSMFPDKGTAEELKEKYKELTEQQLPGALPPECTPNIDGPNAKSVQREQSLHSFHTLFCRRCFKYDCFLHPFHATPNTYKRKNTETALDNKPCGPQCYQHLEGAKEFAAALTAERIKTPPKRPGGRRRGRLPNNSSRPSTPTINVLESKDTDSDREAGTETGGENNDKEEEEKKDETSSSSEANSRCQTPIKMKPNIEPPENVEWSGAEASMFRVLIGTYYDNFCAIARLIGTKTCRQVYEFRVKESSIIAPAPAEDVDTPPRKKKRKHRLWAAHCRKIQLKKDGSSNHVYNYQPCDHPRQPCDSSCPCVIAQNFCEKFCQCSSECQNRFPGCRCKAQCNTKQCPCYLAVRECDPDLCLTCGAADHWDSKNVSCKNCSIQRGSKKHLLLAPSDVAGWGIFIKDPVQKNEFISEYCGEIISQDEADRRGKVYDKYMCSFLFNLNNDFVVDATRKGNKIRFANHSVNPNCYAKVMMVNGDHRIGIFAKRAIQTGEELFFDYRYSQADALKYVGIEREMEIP

In this experiment the target is Histone-lysine N-methyltransferase EZH2 (Homo sapiens, UniProt Q15910). Kind of experiment: Inhibition of EZH2 (unknown origin).

In turn, `Cc1cc(C)c(CNC(=O)c2cc(-c3ccc(N4CCN(C(C)C)CC4)nc3)cc3c2cnn3C(C)C)c(=O)[nH]1` yielded an IC50 of 44 nM. This counts as double-digit nanomolar.

As a reminder, the IC50 is the point on the concentration scale where inhibition reaches its midpoint. A low value points to greater potency in that assay.
